Earlier results as cited in article PMC8587714, “Preliminary Assessment of the Anti-inflammatory Activity of New Structural Honokiol Analogs with a 4′-O-(2-Fluoroethyl) Moiety and the Potential of Their ^18F-Labeled Derivatives for Neuroinflammation Imaging” (Molecules, 2021).

Test system: ovine COX-2
Set-up: method as in PMID 25074039
Conditions: SI = COX-1 IC50/COX-2 IC50; ovine assay kit; cited from earlier work

C=CCc1ccc(O)c(-c2ccc(OC)c(CC=C)c2)c1 [MH, 4′-O-methylhonokiol]
SI (Selectivity Index): 40
